Laboratory results: ChEMBL document CHEMBL1123007, “New antiarrhythmic agents. N-aryl-8-pyrrolizidinealkanamides” (J Med Chem, 1985)

Test: Ratio of LD50 to ED50 evaluated for its antiarrhythmic potency
Type: functional, Heart

Compound: Cc1cccc(C)c1NC(=O)CC12CCCN1CCC2 [PILSICAINIDE]
- Ratio: 17.08
